Measured values: patent US20230046947A1, “REACTIVE CONJUGATES” (Debiopharm Research & Manufacturing S.A., priority 2019, published 2023)

These compounds were tested against T1, Fc region of trastuzumab (Homo sapiens, UniProt P01857) (assay: Competitive FP binding assay against Fc-III-FAM).
T1 construct: made in house; host or cells: recombinant CHO cell lines
Protocol: The competitive FP measurements were performed on SpectraMax Paradigm Multi-Mode Detection Platform (Molecular Devices) in flat-bottom 384-well Corning microplates (Merck KGaA), using excitation and emission wavelengths of 485 nm and 535 nm, respectively. The acquisition time was 700 milliseconds and the read height was 1 mm. All reagents used in the assay were diluted in PBS containing 0.05% Tween 20.
The mixture was incubated at 27° C. for 15 min and the fluorescence signal was red on a Spectramax Paradigm. All sample preparations were done in PBS pH 7.4 or 7.0 containing 0.05% Tween. Each experiment was performed in triplicate.
`CC(C)C[C@@H]1NC(=O)[C@H](Cc2c[nH]cn2)NC(=O)[C@H](Cc2c[nH]c3ccccc23)NC(=O)[C@H](C)NC(=O)[C@@H](NC(=O)[C@H](CC(=O)O)NC(=O)CCOCCOCCOCCOCCOCCOCCOCCOCCOCCOCCOCCOCCOCCOCCOCCN)CSSC[C@@H](C(=O)N[C@H](C(N)=O)[C@@H](C)O)NC(=O)[C@H](Cc2c[nH]c3ccccc23)NC(=O)[C@H](C(C)C)NC(=O)[C@H](CC(C)C)NC(=O)[C@H](CCC(=O)O)NC(=O)CNC1=O` [Compound 9] gave an IC50 of 69 ± 7 nM.
In the case of `CC(C)C[C@@H]1NC(=O)[C@H](Cc2c[nH]cn2)NC(=O)[C@H](Cc2c[nH]c3ccccc23)NC(=O)[C@H](C)NC(=O)[C@@H](NC(=O)[C@@H](N)CC(=O)O)CSSC[C@@H](C(=O)N[C@H](C(N)=O)[C@@H](C)O)NC(=O)[C@H](Cc2c[nH]c3ccccc23)NC(=O)[C@H](C(C)C)NC(=O)[C@H](CC(C)C)NC(=O)[C@H](CCC(=O)O)NC(=O)CNC1=O` [Compound 1, reference compound], the IC50 is reported as 58 ± 15 nM.
`CC(C)C[C@@H]1NC(=O)[C@H](Cc2c[nH]cn2)NC(=O)[C@H](Cc2c[nH]c3ccccc23)NC(=O)[C@H](C)NC(=O)[C@@H](NC(=O)[C@H](CC(=O)O)NC(=O)CCOCCOCCOCCOCCOCCOCCOCCOCCOCCOCCOCCOCCOCCOCCOCCOCCOCCOCCOCCOCCN)CSSC[C@@H](C(=O)N[C@H](C(N)=O)[C@@H](C)O)NC(=O)[C@H](Cc2c[nH]c3ccccc23)NC(=O)[C@H](C(C)C)NC(=O)[C@H](CC(C)C)NC(=O)[C@H](CCC(=O)O)NC(=O)CNC1=O` [Compound 10] was tested, and the IC50 was 91 ± 12 nM.
`CC(C)C[C@@H]1NC(=O)[C@H](Cc2c[nH]cn2)NC(=O)[C@H](Cc2c[nH]c3ccccc23)NC(=O)[C@H](C)NC(=O)[C@@H](NC(=O)[C@H](CC(=O)O)NC(=O)CCOCCOCCOCCOCCOCCOCCOCCOCCOCCOCCOCCOCCOCCOCCOCCOCCOCCOCCOCCOCCOCCOCCOCCOCCN)CSSC[C@@H](C(=O)N[C@H](C(N)=O)[C@@H](C)O)NC(=O)[C@H](Cc2c[nH]c3ccccc23)NC(=O)[C@H](C(C)C)NC(=O)[C@H](CC(C)C)NC(=O)[C@H](CCC(=O)O)NC(=O)CNC1=O` [Compound 11] was tested, and the IC50 was 90 ± 7 nM.
